Earlier results in patent US5795865A, “Kallikrein-inhibiting "kunitz domain" proteins and analogues thereof” (Dyax Corp., priority 1996, dated 1998).

Conditions: about 840 mg, 80 open-heart surgery patients, FRAE89; cited from earlier work

## bovine pancreatic trypsin inhibitor [BPTI]
  reduction of blood loss: almost half
